PMC7545266

Tested on: OC[C@H]1O[C@@](CO)(O[C@H]2O[C@H](CO)[C@@H](O)[C@H](O)[C@H]2O)[C@@H](O)[C@@H]1O
Test: purified protein
Details: pH and temperature not given; printed sucrose range 0.2-2.6 mM (inulin 2.9-52.1 mM), perhaps swapped

Substance	Km	Vmax
KcINU1 (exo-inulinase from Kluyveromyces cicerisporus CBS4857) (Kluyveromyces marxianus; F113W)	94.0 ± 19.2 mM	5770 µmol/min/mg
KcINU1 (exo-inulinase from Kluyveromyces cicerisporus CBS4857) (Kluyveromyces marxianus; M117A)	20.0 ± 3.5 mM	4972 d336.4
